From patent publication US8883850B2, “Naphthalene carboxamide M1 receptor positive allosteric modulators” (Merck Sharp & Dohme Corp., priority 2010, dated 2014)
Read-outs that look alike come from different tables or passages of the source.

By UniProt entry, the sequences of proteins in these tests, tags left out.
UniProt P11229, whole entry: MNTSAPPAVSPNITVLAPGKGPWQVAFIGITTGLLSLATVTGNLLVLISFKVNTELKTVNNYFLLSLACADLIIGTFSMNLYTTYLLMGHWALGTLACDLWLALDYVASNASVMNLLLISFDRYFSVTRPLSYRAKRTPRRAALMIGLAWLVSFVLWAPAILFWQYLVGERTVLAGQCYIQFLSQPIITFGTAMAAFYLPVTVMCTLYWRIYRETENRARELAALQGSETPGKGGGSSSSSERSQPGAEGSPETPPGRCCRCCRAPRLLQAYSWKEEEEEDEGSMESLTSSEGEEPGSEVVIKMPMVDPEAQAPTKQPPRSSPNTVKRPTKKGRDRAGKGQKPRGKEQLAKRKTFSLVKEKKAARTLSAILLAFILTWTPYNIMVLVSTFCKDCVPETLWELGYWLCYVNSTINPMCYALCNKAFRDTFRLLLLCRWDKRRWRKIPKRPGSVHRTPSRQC

Biological target: acetylcholine muscarinic M1 receptor (Homo sapiens, UniProt P11229)
Test: M1 FLIPR assay: intracellular calcium, potentiation of acetylcholine EC20
Conditions: read-out: M1 IP Value, inflection point value from FLIPR assay, CHOnfat/hM1 cells, 4 min pre-incubation, then acetylcholine EC20 (3 nM final)

Structure (SMILES)	EC50 (Table 2, Formula (IV)) [µM]	EC50 (Table 1, Formula (III)) [µM]
CCNC(=O)Oc1c(C(=O)N[C@H]2CCCC[C@@H]2O)cc(Cc2ccc(Cl)nc2)c2ccccc12	5.02	
O=C(N[C@H]1CCCC[C@@H]1O)c1cc(Cc2ccc(Cl)nc2)c2ccccc2c1O	9.08	
COc1c(C(=O)O)cc(CN2CCC(C#N)(c3cc(C)ccn3)CC2)c2ccccc12		5.38
